Data: US20030232839A1, “Treatment of sleeping disorders using CNS sleep target modulators” (Hypnion, Inc., priority 2002, published 2003)

Protein sequences, listed by entry. Tags and fused reporters are not part of them.
UniProt P14842, whole entry: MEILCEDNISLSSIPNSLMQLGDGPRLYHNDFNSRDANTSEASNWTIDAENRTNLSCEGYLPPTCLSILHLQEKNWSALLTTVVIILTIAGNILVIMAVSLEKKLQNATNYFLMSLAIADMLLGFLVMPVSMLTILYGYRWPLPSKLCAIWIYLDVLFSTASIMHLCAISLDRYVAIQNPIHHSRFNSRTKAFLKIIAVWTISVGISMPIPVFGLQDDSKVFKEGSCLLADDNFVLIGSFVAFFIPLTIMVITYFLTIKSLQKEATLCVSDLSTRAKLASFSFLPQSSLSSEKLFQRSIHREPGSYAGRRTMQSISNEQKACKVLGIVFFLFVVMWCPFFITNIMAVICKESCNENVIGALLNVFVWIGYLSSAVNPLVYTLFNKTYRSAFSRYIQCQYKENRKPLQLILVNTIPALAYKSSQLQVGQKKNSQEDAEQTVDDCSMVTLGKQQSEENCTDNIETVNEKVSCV
UniProt P28223, whole entry: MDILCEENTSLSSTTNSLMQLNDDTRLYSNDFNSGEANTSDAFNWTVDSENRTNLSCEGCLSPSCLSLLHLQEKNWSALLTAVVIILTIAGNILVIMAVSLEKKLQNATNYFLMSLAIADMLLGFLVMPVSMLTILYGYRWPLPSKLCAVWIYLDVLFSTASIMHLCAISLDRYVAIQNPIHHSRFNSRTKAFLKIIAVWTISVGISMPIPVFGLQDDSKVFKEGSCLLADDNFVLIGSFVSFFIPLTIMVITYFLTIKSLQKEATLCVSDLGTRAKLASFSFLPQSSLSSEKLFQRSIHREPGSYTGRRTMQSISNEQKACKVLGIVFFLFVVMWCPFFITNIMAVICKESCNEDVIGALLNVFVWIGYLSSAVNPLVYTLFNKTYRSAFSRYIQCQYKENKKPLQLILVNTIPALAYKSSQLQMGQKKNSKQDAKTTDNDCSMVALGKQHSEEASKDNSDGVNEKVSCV

Assays:
rat 5-HT2A receptor = rat 5-HT2A receptor (Rattus norvegicus, UniProt P14842); experiment: 5-HT2A binding study, rat receptor; settings: read-out: 5HT-2a Ki, Rat
human 5-HT2A receptor = human 5-HT2A receptor (Homo sapiens, UniProt P28223); experiment: 5-HT2A binding study, human receptor; settings: read-out: 5HT-2a Ki, Human

| SMILES | Ki (rat 5-HT2A receptor) [nM] | Ki (human 5-HT2A receptor) [nM] |
| --- | --- | --- |
| O=C(OC1CCCC1)C1CN(CCCn2nc3ccccn3c2=O)CCN1c1cccc(Cl)c1 (stereo not drawn) [HY-2725] | 18.7 | – |
| CC(C)OC(=O)C1CN(CCCn2nc3ccccn3c2=O)CCN1c1cccc(Cl)c1 (stereo not drawn) [HY-2650] | 50.3 | 2100 |
